Assay results: ChEMBL document CHEMBL6182862, “Discovery of novel azetidine-based imidazopyridines as selective and orally bioavailable inhibitors of phosphodiesterase 10A for the treatment of pulmonary arterial hypertension” (Eur J Med Chem, 2025)
pIC50: −log10 of the molar value.

Amino acid sequences for entries named in this document (tags omitted). A change or cut given only in a name is not applied to a line headed by its entry.
UniProt Q9Y233: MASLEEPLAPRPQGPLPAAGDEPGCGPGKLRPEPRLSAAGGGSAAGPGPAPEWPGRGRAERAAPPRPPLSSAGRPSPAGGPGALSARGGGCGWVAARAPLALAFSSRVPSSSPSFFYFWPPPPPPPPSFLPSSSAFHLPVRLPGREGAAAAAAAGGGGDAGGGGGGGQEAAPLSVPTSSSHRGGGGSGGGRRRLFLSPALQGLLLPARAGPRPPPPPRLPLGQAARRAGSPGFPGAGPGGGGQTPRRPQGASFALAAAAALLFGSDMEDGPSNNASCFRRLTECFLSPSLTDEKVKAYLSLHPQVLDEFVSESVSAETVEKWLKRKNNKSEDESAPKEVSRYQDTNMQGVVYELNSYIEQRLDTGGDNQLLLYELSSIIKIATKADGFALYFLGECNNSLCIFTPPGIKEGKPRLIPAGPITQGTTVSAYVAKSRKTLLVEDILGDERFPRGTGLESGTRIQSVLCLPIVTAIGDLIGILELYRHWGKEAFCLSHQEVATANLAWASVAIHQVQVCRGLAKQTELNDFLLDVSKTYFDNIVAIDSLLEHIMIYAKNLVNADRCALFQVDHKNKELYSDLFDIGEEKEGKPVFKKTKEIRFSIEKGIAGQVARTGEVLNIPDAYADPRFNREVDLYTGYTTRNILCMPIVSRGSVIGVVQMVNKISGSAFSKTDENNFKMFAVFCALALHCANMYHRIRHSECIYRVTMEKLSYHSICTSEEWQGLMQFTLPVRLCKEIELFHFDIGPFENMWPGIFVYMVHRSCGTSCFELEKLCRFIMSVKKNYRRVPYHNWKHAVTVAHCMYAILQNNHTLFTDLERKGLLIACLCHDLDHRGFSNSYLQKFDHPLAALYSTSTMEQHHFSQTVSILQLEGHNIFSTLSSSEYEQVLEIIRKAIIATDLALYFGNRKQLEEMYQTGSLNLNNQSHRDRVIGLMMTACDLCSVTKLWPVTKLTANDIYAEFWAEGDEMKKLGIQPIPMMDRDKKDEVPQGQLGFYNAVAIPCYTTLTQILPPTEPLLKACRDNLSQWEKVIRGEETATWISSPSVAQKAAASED

Target: cAMP and cAMP-inhibited cGMP 3',5'-cyclic phosphodiesterase 10A (Homo sapiens, UniProt Q9Y233)

## COc1ccc(Cc2nccc3cc(OC)c(OC)cc23)cc1OC [PAPAVERINE]
  pIC50: 7.31
